The data set is described as follows: Water/octanol partitioning coefficient, Log P.

In the case of `O.O=c1c(O)c(-c2ccc(O)c(O)c2)oc2cc(O)cc(O)c12` [Quercetin hydrate], the logP is ~2.

Source of the values: patent US20220175675A1, “ENCAPSULATING MOLECULES IN FAT GLOBULES” (The Regents of the University of California, priority 2019, published 2022).
